# Measured values published in paper PMC7253423, “Quassinoid analogs with enhanced efficacy for treatment of hematologic malignancies target the PI3Kγ isoform” (Communications Biology, 2020).
# Several values for one entry are separate records, joined by “and”; a condition that tells them apart may be missing. Equal values may be shown once.
# How the values were obtained:
# Test in all cases: Cell viability assay (CellTiter-Glo luminescence)
# Type in all cases: cell-based, human
# [1] = test system: C17 nasopharyngeal carcinoma cells; conditions: Fig 4a
# Protocol: (§1) 5000 cells as indicated were cultured in 96-well plate with 100 μl of media. On the next day, Brusatol or associated analogs were added once to the cells without media change. After treatment, the cells were incubated with 100 μl buffer for 10 min at room temperature following the instructions of CellTiter-Glo kit (Promega, Madison, WI). Luminescence was detected using a multi-mode reader Cytation 5 (BioTek, Winooski, VT). Brusatol or its analogs are dissolved in 100% ethanol and diluted in 1 × PBS for treatment. Two independent experiments done in duplicates were performed.
# [2] = test system: H929 cells; conditions: Fig 3a
# Protocol: as §1
# [3] = test system: HL-60 cells; conditions: Fig 3a
# Protocol: as §1
# [4] = test system: K562 cells; conditions: for Relative cell viability over time: relative to 0, Fig 3b; for Relative cell viability: Fig 3a
# Protocol: as §1
# [5] = test system: MOLM14 cells; conditions: for Relative cell viability: Fig 3a; for relative cell viability (Fig 6e), replicates: fraction of 0 μM control
# Protocol: as §1
# [6] = test system: NPC43 cells; conditions: Fig 4a
# Protocol: as §1
substance,measurement,setting,value
Brusatol,Relative cell viability,"[1]; C17, Con. 0.000244141 μM",0.9411 and 0.914
same,Relative cell viability,"[1]; C17, Con. 0.000976563 μM",1.087 and 0.9752
same,Relative cell viability,"[1]; C17, Con. 0.00390625 μM",1.086 and 1.022
same,Relative cell viability,"[1]; C17, Con. 0.015625 μM",1.067 and 1.035
same,Relative cell viability,"[1]; C17, Con. 0.0625 μM",0.8854 and 0.8649
same,Relative cell viability,"[1]; C17, Con. 0.25 μM",0.6147 and 0.5533
same,Relative cell viability,"[1]; C17, Con. 1 μM",0.4452 and 0.481
same,Relative cell viability,"[2]; H929, Con. 0.000244141 μM",1.048 and 0.8831
same,Relative cell viability,"[2]; H929, Con. 0.000976563 μM",1.073 and 1.077
same,Relative cell viability,"[2]; H929, Con. 0.00390625 μM",1.16 and 1.049
same,Relative cell viability,"[2]; H929, Con. 0.015625 μM",0.6265 and 0.5185
same,Relative cell viability,"[2]; H929, Con. 0.0625 μM",0.2216 and 0.1683
same,Relative cell viability,"[2]; H929, Con. 0.25 μM",0.07977 and 0.1061
same,Relative cell viability,"[2]; H929, Con. 1 μM",0.06659 and 0.0561
same,Relative cell viability,"[3]; HL-60, Con. 0.000244141 μM",0.8336 and 0.8977
same,Relative cell viability,"[3]; HL-60, Con. 0.000976563 μM",0.8923 and 0.9849
same,Relative cell viability,"[3]; HL-60, Con. 0.00390625 μM",0.9023 and 0.9577
same,Relative cell viability,"[3]; HL-60, Con. 0.015625 μM",0.7622 and 0.7425
same,Relative cell viability,"[3]; HL-60, Con. 0.0625 μM",0.5978 and 0.6056
same,Relative cell viability,"[3]; HL-60, Con. 0.25 μM",0.5376 and 0.5558
same,Relative cell viability,"[3]; HL-60, Con. 1 μM",0.5035 and 0.5943
same,Relative cell viability over time,"[4]; K562, 24hrs",1.168 and 1.204
same,Relative cell viability over time,"[4]; K562, 48hrs",0.965 and 0.7565
same,Relative cell viability over time,"[4]; K562, 72hrs",0.5464 and 0.5022
same,Relative cell viability,"[4]; K562, Con. 0.000244141 μM",1.187 and 1.19
same,Relative cell viability,"[4]; K562, Con. 0.000976563 μM",0.9766 and 0.928
same,Relative cell viability,"[4]; K562, Con. 0.00390625 μM",1.17 and 1.142
same,Relative cell viability,"[4]; K562, Con. 0.015625 μM",0.292 and 0.2204
same,Relative cell viability,"[4]; K562, Con. 0.0625 μM",0.1449 and 0.1363
same,Relative cell viability,"[4]; K562, Con. 0.25 μM",0.1177 and 0.1097
same,Relative cell viability,"[4]; K562, Con. 1 μM",0.1126 and 0.1177
same,Relative cell viability,"[5]; MOLM14, Con. 0.000244141 μM",1.093 and 0.9373
same,Relative cell viability,"[5]; MOLM14, Con. 0.000976563 μM",0.6464 and 0.5402
same,"relative cell viability (Fig 6e), replicates","[5]; MOLM14, Con. 0.00244141 μM",1.084 and 0.9426
same,Relative cell viability,"[5]; MOLM14, Con. 0.00390625 μM",0.09731 and 0.09357
same,"relative cell viability (Fig 6e), replicates","[5]; MOLM14, Con. 0.00976562 μM",1.067 and 0.836
same,Relative cell viability,"[5]; MOLM14, Con. 0.015625 μM",0.03685 and 0.03647
same,"relative cell viability (Fig 6e), replicates","[5]; MOLM14, Con. 0.0390625 μM",0.4235 and 0.3524
same,Relative cell viability,"[5]; MOLM14, Con. 0.0625 μM",0.03245 and 0.03429
same,"relative cell viability (Fig 6e), replicates","[5]; MOLM14, Con. 0.15625 μM",0.1035 and 0.1208
same,Relative cell viability,"[5]; MOLM14, Con. 0.25 μM",0.02602 and 0.02786
same,"relative cell viability (Fig 6e), replicates","[5]; MOLM14, Con. 0.625 μM",0.03957 and 0.03909
same,Relative cell viability,"[5]; MOLM14, Con. 1 μM",0.02218 and 0.02021
same,"relative cell viability (Fig 6e), replicates","[5]; MOLM14, Con. 2.5 μM",0.04357 and 0.03929
same,"relative cell viability (Fig 6e), replicates","[5]; MOLM14, Con. 10 μM",0.05298 and 0.04635
same,Relative cell viability,"[6]; NPC43, Con. 0.000244141 μM",1.007 and 1.011
same,Relative cell viability,"[6]; NPC43, Con. 0.000976563 μM",1.06 and 0.9635
